Reference: paper PMC4850247

By UniProt entry, the sequences of proteins in these tests, tags left out. Where a name states a change or a piece, a line headed by the entry shows the natural chain unless it says otherwise. Residues count along the entry.
UniProt Q5T2D3, 52-209: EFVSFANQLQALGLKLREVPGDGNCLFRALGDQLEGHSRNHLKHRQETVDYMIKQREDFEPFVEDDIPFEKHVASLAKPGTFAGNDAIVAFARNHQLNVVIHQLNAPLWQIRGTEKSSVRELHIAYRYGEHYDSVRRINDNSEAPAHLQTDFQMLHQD
UniProt Q5VVQ6: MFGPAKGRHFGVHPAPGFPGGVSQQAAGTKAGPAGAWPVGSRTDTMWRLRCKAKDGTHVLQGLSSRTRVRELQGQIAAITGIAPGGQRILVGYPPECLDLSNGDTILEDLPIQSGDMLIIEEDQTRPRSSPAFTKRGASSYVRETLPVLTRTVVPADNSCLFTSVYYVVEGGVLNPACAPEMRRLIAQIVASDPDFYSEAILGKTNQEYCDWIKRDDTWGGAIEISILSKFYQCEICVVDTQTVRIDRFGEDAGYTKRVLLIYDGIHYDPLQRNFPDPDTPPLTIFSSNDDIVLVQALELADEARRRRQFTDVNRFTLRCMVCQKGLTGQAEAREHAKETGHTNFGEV

Columns and labels:
[1] = molecular target: OTUD3 (aa 52-209) (human) (UniProt Q5T2D3)
[2] = molecular target: Full-length human OTUD2 (human) (UniProt Q5VVQ6)

“Ub-7-amido-4-methylcoumarin (mUb-AMC) (from UniProt P0CG48 1-76)” gave a KM of AMC release from mUb-AMC (Michaelis-Menten, 15 nM OTUD3) [1] of 3.1 µM and a KM of AMC release from mUb-AMC (Michaelis-Menten, 15 nM OTUD2, substrate up to 20 μM) [2] greater than 100 µM.
